Test results published in ChEMBL document CHEMBL1759976, “Carbonic anhydrase inhibitors. Inhibition of the β-class enzymes from the fungal pathogens Candida albicans and Cryptococcus neoformans with branched aliphatic/aromatic carboxylates and their derivatives” (Bioorg Med Chem Lett, 2011).

Target: Carbonic anhydrase 2 (Homo sapiens, UniProt P00918)

Ki: 7.28 µM
Compound: O=C(O)c1ccc(O)cc1
